The structures appear in SMILES notation.

Chains of the proteins cited; added tags and fusions are not shown.
UniProt P20272, whole entry: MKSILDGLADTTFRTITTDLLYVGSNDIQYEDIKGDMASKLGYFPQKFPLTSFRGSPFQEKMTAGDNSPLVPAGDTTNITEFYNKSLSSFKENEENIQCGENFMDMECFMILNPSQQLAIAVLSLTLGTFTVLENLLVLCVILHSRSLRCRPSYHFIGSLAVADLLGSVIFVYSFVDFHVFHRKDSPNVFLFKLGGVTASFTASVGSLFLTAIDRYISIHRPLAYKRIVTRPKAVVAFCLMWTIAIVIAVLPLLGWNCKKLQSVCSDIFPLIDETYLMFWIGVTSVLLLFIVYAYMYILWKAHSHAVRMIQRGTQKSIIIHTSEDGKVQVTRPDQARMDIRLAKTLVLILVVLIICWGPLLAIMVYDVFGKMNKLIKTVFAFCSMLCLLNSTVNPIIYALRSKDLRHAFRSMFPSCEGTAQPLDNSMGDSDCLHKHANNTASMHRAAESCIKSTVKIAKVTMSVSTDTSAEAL

This test deals with Cannabinoid receptor 1 (Rattus norvegicus, UniProt P20272). The experiment in a line: Compound was evaluated for its ability to displace specifically bound [3H]CP-55940 from a Cannabinoid receptor 1 enriched rat brain microsome preparation.

For orientation: Ki means the equilibrium dissociation constant of an inhibitor or competing ligand from its target. For `CCCCCCCc1cc(O)c2c(c1)OC(C)(C)[C@@H]1CC[C@@H](CO)C[C@@H]21`, the Ki amounted to 8.7 nM.

The values above are taken from ChEMBL document CHEMBL1129689, “Unsaturated side chain beta-11-hydroxyhexahydrocannabinol analogs” (J Med Chem, 1996).
